Laboratory results taken from patent US10730889B2.

Test system: A2780 cells
Assay: In-vitro cell proliferation assay
Assay type: cell-based
Details: read-out: Cell Proliferation (IC50), 72 hours, SRB

Work on `O=C(NCC1CC12CCN(C(=O)c1cncnc1)CC2)c1cc2ccncc2o1` (stereo not shown) yielded an IC50 of 2000 nM.
